The conditions of series [1]: not told.
For series [2] the following is noted: inferred from published mAb studies, cited from earlier work.

Like-named read-outs stand apart in the source and are kept apart here.

As for eculizumab, the “fraction introduced to upper reservoir diffused to lower reservoir” value in series [1] was “less than 20%”. For the same substance, the Eculizumab biodistribution % is on record as 7.27% in series [2] (Bone); 0.35% in series [2] (Brain); 4.78% in series [2] (Fat); 10.2% in series [2] (Heart); 5.03% in series [2] (Large Intestine); 12.1% in series [2] (Liver). Besides, the Eculizumab biodistribution % in series [2] (Lung) is given as 14.9%; in series [2] (Lymph nodes), 8.46%; in series [2] (Muscle) it was 3.97%; in series [2] (Pancreas), 6.4%; in series [2] (Small Intestine), 5.22%; in series [2] (Spleen), 12.8%. In addition, the results for the Eculizumab biodistribution % in series [2] (Stomach), in series [2] (Testes) and in series [2] (Thymus) were 4.98%, 5.88% and 6.62%, respectively.

These data come from patent US20220160820A1, “MODULATORS OF COMPLEMENT ACTIVITY” (Ra Pharmaceuticals, Inc., priority 2019, published 2022).
